Experimental data: publication PMC10762035, “Molecular basis of human trace amine-associated receptor 1 activation” (Nature Communications, 2024)
Changes are numbered by the printed parent chain. pEC50: −log10 of the molar value. Several values for one entry are separate records, joined by “and”; a condition that tells them apart may be missing. Equal values may be shown once. Read-outs that look alike come from different tables or passages of the source.

What was measured:
[1] = target: T1, hTA1 I290N (Homo sapiens, UniProt Q96RJ0, I290N); assay: GloSensor cAMP accumulation assay, I290N mutant; format: cell-based;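 note: cells transiently co-expressing hTA1 and the GloSensor cAMP biosensor, luminescence read 30 min after compound addition at room temperature, efficacy scaled to the maximal β-PEA response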
T1 construct: expressed in transfected cells; host or cells: HEK293T
T1 sequence (Q96RJ0 1-339 I290N): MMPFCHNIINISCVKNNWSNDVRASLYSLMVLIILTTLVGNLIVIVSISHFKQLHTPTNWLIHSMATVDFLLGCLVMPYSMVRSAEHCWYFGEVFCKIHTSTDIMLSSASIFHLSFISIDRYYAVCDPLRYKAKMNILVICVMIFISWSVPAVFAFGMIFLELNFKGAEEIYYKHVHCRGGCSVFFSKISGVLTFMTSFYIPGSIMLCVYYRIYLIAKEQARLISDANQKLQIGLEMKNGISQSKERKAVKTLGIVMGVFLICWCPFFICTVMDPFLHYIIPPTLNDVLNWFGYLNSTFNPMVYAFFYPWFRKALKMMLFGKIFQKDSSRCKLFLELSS

[2] = target: T2, hTA1 T194A (Homo sapiens, UniProt Q96RJ0, T194A); assay: GloSensor cAMP accumulation assay, T194A mutant
T2 sequence (Q96RJ0 1-339 T194A): T1 sequence (Q96RJ0 1-339 I290N) with T194A, N290I

[3] = target: T3, hTA1 C5S (Homo sapiens, UniProt Q96RJ0, C5S); assay: GloSensor cAMP accumulation assay, C5S mutant; format: cell-based
T3 construct: expressed in transfected cells; host or cells: HEK293T
T3 sequence (Q96RJ0 1-339 C5S): T1 sequence (Q96RJ0 1-339 I290N) with C5S, N290I

[4] = target: T4, hTA1 V184P (Homo sapiens, UniProt Q96RJ0, V184P); assay: GloSensor cAMP accumulation assay, V184P mutant; format: cell-based
T4 construct: expressed in transfected cells; host or cells: HEK293T
T4 sequence (Q96RJ0 1-339 V184P): T1 sequence (Q96RJ0 1-339 I290N) with V184P, N290I

[5] = target: T5, hTA1 S107C (Homo sapiens, UniProt Q96RJ0, S107C); assay: GloSensor cAMP accumulation assay, S107C mutant; format: cell-based; conditions: S107C; n=2; read-out: EC50;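 note: cells transiently co-expressing receptor and GloSensor biosensor, luminescence read after 30 min agonist exposure at room temperature, concentration-response fitted by nonlinear regression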
T5 construct: expressed in transfected cells; host or cells: HEK293T
T5 sequence (Q96RJ0 1-339 S107C): T1 sequence (Q96RJ0 1-339 I290N) with S107C, N290I

[6] = target: T6, hTA1 C178S (Homo sapiens, UniProt Q96RJ0, C178S); assay: GloSensor cAMP accumulation assay, C178S mutant; format: cell-based
T6 construct: expressed in transfected cells; host or cells: HEK293T
T6 sequence (Q96RJ0 1-339 C178S): T1 sequence (Q96RJ0 1-339 I290N) with C178S, N290I

[7] = target: T7, hTA1 I290Y (Homo sapiens, UniProt Q96RJ0, I290Y); assay: GloSensor cAMP accumulation assay, I290Y mutant; format: cell-based; conditions: I290Y
T7 construct: expressed in transfected cells; host or cells: HEK293T
T7 sequence (Q96RJ0 1-339 I290Y): T1 sequence (Q96RJ0 1-339 I290N) with N290Y

Compound: CCc1[nH]nc(C(=O)Nc2ccc([C@H]3CNCCO3)cc2)c1C [ralmitaront]
- pEC50 ([1]; I290N, n=2, read-out: EC50): 7.02
- EC50 ([1]; hTA1 I290N mutant, Figure 3B source data, each grid row a separate experiment, 3 replicates, read-out: pEC50 values (Mean) (converted)): 0.153 µM and 0.0586 µM
- pEC50 ([2]; pEC50 values, Mean, T149A (so in the source), single experiments (3 replicates each)): 7.59 and 7.16 and 7.25
- pEC50 ([2]; pEC50 ± SEM, T194A): 7.33
- pEC50 ([3]; C5S, n=2, read-out: EC50): 6.78
- EC50 ([3]; hTA1 C5S, mean of 3 replicates, one line per independent experiment, read-out: pEC50 values, Mean (converted)): 0.215 µM and 0.131 µM
- pEC50 ([4]; V184P, n=2, read-out: EC50): 6.56
- EC50 ([4]; hTA1 V184P mutant, Figure 3B source data, each grid row a separate experiment, 3 replicates, read-out: pEC50 values (Mean) (converted)): 0.298 µM and 0.25 µM
- pEC50 [5]: 6.93
- EC50 ([6]; C178S, each row one experiment (N=2), 3 replicates, read-out: pEC50 values, Mean (converted)): 0.31 µM and 0.122 µM
- pEC50 ([6]; C178S, n=2, read-out: EC50): 6.71
- C178S - Normalized Luminescence Counts (N=2) ([6]; log[Compound], M = -6, single replicates): 69.5866
- pEC50 ([7]; read-out: EC50): 7.36
- EC50 ([7]; single experiments (3 replicates each), read-out: pEC50 values, Mean (converted)): 0.0141 µM and 0.0473 µM and 0.125 µM
